According to the CheMixHub ionic liquid set:

Assay: xn = mol fraction of the nth substance listed
Settings: 100 kPa, x1 = 0.0001802

CCC[N+](CCC)(CCC)CCC.[Br-] + CCCCCCCCCCCCOS(=O)(=O)[O-].[Na+] + O
viscosity [mPa·s]
Settings	x2 = 1.81e-06	x2 = 3.61e-06	x2 = 5.42e-06	x2 = 7.23e-06	x2 = 9.03e-06	x2 = 1.084e-05	x2 = 1.265e-05	x2 = 1.445e-05	x2 = 1.626e-05	x2 = 1.806e-05
293.15 K	1.009 ± 0.027	1.01 ± 0.027	1.011 ± 0.027	1.011 ± 0.027	1.012 ± 0.027	1.012 ± 0.027	1.013 ± 0.027	1.013 ± 0.027	1.013 ± 0.027	1.014 ± 0.027
298.15 K	0.903 ± 0.027	0.906 ± 0.027	0.907 ± 0.027	0.907 ± 0.027	0.908 ± 0.027	0.908 ± 0.027	0.908 ± 0.027	0.908 ± 0.027	0.909 ± 0.027	0.91 ± 0.027
303.15 K	0.797 ± 0.027	0.798 ± 0.027	0.799 ± 0.027	0.8 ± 0.027	0.8 ± 0.027	0.801 ± 0.027	0.801 ± 0.027	0.801 ± 0.027	0.801 ± 0.027	0.802 ± 0.027
308.15 K	0.718 ± 0.027	0.719 ± 0.027	0.72 ± 0.027	0.721 ± 0.027	0.722 ± 0.027	0.722 ± 0.027	0.722 ± 0.027	0.722 ± 0.027	0.723 ± 0.027	0.723 ± 0.027
313.15 K	0.653 ± 0.027	0.654 ± 0.027	0.656 ± 0.027	0.656 ± 0.027	0.657 ± 0.027	0.657 ± 0.027	0.657 ± 0.027	0.657 ± 0.027	0.658 ± 0.027	0.658 ± 0.027
318.15 K	0.598 ± 0.026	0.6 ± 0.026	0.601 ± 0.026	0.601 ± 0.026	0.602 ± 0.026	0.602 ± 0.026	0.602 ± 0.026	0.602 ± 0.026	0.602 ± 0.026	0.602 ± 0.026

± gives the uncertainty stated by the source.
